Measured values from ChEMBL document CHEMBL1155226, “Design, synthesis, and structure-activity relationship of a novel series of 2-aryl 5-(4-oxo-3-phenethyl-2-thioxothiazolidinylidenemethyl)furans as HIV-1 entry inhibitors” (J Med Chem, 2009).

Columns and labels:
Assay type in all cases: functional, organism-based
[1] = tested on: Human immunodeficiency virus 1; experiment: Antiviral activity against HIV1 3B replication in human MT2 cells exposed to light assessed as inhibition of p24 production after 4 days by ELISA
[2] = tested on: Human immunodeficiency virus 1; experiment: Antiviral activity against HIV1 isolate 94UG103 replication in human PBMC assessed as inhibition of p24 production after 7 days by ELISA
[3] = tested on: Human immunodeficiency virus 1; experiment: Antiviral activity against HIV1 3B replication in human MT2 cells under dark condition assessed as inhibition of p24 production after 4 days by ELISA

Measured: Activity

O=C(O)c1cccc(-c2ccc(/C=C3\SC(=S)N(CCc4ccccc4)C3=O)o2)c1F
active: [1] Dose-dependent effect | [2] Dose-dependent effect | [3] Dose-dependent effect

COc1ccc(-c2ccc(/C=C3\SC(=S)N(CCc4ccccc4)C3=O)o2)cc1C(=O)O
active: [1] Dose-dependent effect | [2] Dose-dependent effect | [3] Dose-dependent effect

Cc1c(C(=O)O)cccc1-c1ccc(/C=C2\SC(=S)N(CCc3ccccc3)C2=O)o1
active: [1] Dose-dependent effect | [2] Dose-dependent effect | [3] Dose-dependent effect

O=C(O)c1cc(-c2ccc(/C=C3\SC(=S)N(CCc4ccccc4)C3=O)o2)cnc1Br
active: [1] Dose-dependent effect | [2] Dose-dependent effect | [3] Dose-dependent effect

O=C(O)c1cc(-c2ccc(/C=C3\SC(=S)N(CCc4ccccc4)C3=O)o2)ccc1Br
active: [1] Dose-dependent effect | [2] Dose-dependent effect | [3] Dose-dependent effect

O=C(O)c1cccc(-c2ccc(/C=C3\SC(=S)N(CCc4ccccc4)C3=O)o2)c1
active: [1] Dose-dependent effect | [2] Dose-dependent effect | [3] Dose-dependent effect

O=C(O)c1cc(-c2ccc(/C=C3\SC(=S)N(CCc4ccccc4)C3=O)o2)ccc1O
active: [1] Dose-dependent effect | [2] Dose-dependent effect | [3] Dose-dependent effect

Cc1c(C(=O)O)cncc1-c1ccc(/C=C2\SC(=S)N(CCc3ccccc3)C2=O)o1
active: [1] Dose-dependent effect | [2] Dose-dependent effect | [3] Dose-dependent effect

O=C(O)c1cc(-c2ccc(/C=C3\SC(=S)N(CCc4ccccc4)C3=O)o2)ccc1F
active: [1] Dose-dependent effect | [2] Dose-dependent effect | [3] Dose-dependent effect

Cc1ccc(-c2ccc(/C=C3\SC(=S)N(CCc4ccccc4)C3=O)o2)cc1C(=O)O
active: [1] Dose-dependent effect | [2] Dose-dependent effect | [3] Dose-dependent effect

O=C(O)c1cccc(-c2ccc(/C=C3\SC(=S)N(CCc4ccccc4)C3=O)o2)c1Cl
active: [1] Dose-dependent effect | [2] Dose-dependent effect | [3] Dose-dependent effect

O=C(O)c1cncc(-c2ccc(/C=C3\SC(=S)N(CCc4ccccc4)C3=O)o2)c1
active: [1] Dose-dependent effect | [2] Dose-dependent effect | [3] Dose-dependent effect

O=C(O)c1cc(-c2ccc(/C=C3\SC(=S)N(CCc4ccccc4)C3=O)o2)ccc1Cl
active: [1] Dose-dependent effect | [2] Dose-dependent effect | [3] Dose-dependent effect

CCc1ccc(-c2ccc(/C=C3\SC(=S)N(CCc4ccccc4)C3=O)o2)cc1C(=O)O
active: [1] Dose-dependent effect | [2] Dose-dependent effect | [3] Dose-dependent effect

O=C(O)c1cc(-c2ccc(/C=C3\SC(=S)N(CCc4ccccc4)C3=O)o2)cnc1Cl
active: [1] Dose-dependent effect | [2] Dose-dependent effect | [3] Dose-dependent effect
